Results from US10941379B2, “Microbial system for biosynthesis of natural and engineered products coupled to in situ extraction in supercritical CO2” (Massachusetts Institute of Technology, priority 2016, dated 2021).

System: B. megaterium SR7
Experiment: Biolog GenIII sole carbon source growth
Type: cell-based, Bacillus megaterium
Conditions: Table 11
Protocol: Plates were incubated at 37° C. on a plate shaker at 200 rpm and assayed for growth using NADH-dependent colorimetric changes measured by OD490 on a microplate reader (BioTek Synergy 2; BioTek; Winooski, Vt.).

O=C(O)CCC(=O)C(=O)O [α-Keto-Glutaric Acid]
+: Growth in carbon source Biolog plate, +Metals (trace metals-amended plate) | Growth in carbon source Biolog plate, I (unamended plate trial I) | Growth in carbon source Biolog plate, II (unamended plate trial II)
